Bounds are passed on as bounds.

Amino acid sequences for entries named in this document (tags omitted). Residues count along the entry.
UniProt P50591, 114-281 limits assumed: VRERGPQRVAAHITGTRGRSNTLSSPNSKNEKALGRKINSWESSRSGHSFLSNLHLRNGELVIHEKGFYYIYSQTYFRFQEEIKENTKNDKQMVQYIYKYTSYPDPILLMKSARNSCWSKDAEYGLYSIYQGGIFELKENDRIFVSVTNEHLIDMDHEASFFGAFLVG

For the assay, the target named is TRAIL (human) (UniProt P50591). Briefly: cell-based or functional assay.

“recombinant human OPG.Fc (R&D Systems) (from UniProt O00300 22-401) (Fc fusion)” registered a proportion of HCT116 cells exhibiting TRAIL-induced apoptosis (TRAIL 0.53 nM) at an OPG dose of 5.6 nM of less than 10%.

The values are drawn from patent US20060189528A1.
